The chains behind the UniProt entries cited, without tags or fusion partners.
UniProt P34914, whole entry: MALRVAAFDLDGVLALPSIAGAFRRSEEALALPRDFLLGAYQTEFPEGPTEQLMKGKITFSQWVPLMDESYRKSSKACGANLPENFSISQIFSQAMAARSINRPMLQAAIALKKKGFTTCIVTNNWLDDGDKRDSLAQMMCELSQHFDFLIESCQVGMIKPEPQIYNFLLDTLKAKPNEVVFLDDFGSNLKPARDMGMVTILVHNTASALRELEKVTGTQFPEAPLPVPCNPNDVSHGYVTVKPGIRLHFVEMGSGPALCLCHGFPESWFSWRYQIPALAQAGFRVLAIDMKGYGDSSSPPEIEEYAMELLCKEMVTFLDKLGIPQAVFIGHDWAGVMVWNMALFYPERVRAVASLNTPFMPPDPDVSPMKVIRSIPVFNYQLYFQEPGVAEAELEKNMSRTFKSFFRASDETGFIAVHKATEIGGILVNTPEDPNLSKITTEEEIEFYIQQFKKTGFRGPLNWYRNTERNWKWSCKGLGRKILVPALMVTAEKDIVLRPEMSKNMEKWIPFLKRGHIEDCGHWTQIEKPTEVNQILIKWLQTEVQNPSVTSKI

The compounds below were run against mouse sEH (Mus musculus, UniProt P34914) (assay: Inhibition of recombinant mouse sEH, IC50 assay with 4-nitrophenyl-trans-2,3-epoxy-3-phenylpropyl carbonate as substrate). Conditions: read-out: Mouse sEH IC50; Table 10; unpurified reaction solutions used directly, theoretical concentration 10 mM; means ± SD of three experiments.
Type: biochemical
`O=C(O)C[C@H](NC(=O)CCCNC(=O)NC1CCCCC1)C(=O)O` gave an IC50 greater than 50 µM.
With `CC(C)[C@H](NC(=O)CCCNC(=O)NC1CCCCC1)C(=O)O` the IC50 was greater than 50 µM.
`O=C(CCCNC(=O)NC1CCCCC1)N[C@@H](CO)C(=O)O` showed an IC50 greater than 50 µM.

— patent publication US20050164951A1, “Inhibitors for the soluble epoxide hydrolase” (The Regents of the University of California, priority 2003, published 2005)
